The values below are quoted from earlier work in patent US20040241243A1, “Angiogenesis promotion by prostaglandin compositions and methods” (NexMed (Holdings) Inc., priority 2003, published 2004).

The chains behind the UniProt entries cited, without tags or fusion partners. Where a name states a change or a piece, a line headed by the entry shows the natural chain unless it says otherwise.
UniProt P32240: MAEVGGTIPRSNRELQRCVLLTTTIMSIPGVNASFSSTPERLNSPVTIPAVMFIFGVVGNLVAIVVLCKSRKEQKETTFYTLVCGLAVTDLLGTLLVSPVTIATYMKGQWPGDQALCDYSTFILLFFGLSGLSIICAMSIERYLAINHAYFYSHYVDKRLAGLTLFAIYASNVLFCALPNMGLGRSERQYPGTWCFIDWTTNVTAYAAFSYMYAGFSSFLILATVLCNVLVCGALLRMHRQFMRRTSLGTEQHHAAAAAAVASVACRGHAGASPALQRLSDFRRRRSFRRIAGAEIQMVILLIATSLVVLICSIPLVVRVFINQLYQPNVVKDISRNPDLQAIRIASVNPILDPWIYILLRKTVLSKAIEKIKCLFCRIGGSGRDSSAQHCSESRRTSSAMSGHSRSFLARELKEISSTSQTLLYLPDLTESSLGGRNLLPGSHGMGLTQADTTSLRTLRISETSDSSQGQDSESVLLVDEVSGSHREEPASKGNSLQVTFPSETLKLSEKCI

For the data set, the target named is EP4 receptor (Mus musculus, UniProt P32240). Conditions: read-out: affinity for the EP4 receptor; cited from earlier work.

pKd: −log10 of the molar value.

On to `CCCCC[C@H](O)/C=C/[C@H]1[C@H](O)CC(=O)[C@@H]1C/C=C\CCCC(=O)O` [PGE2, prostaglandin E2], for which the pKd was ~8.70.
